Values quoted from earlier work as cited in patent US6841561B1, “Dihydroorotate dehydrogenase inhibitors for the treatment of viral-mediated diseases” (priority 1999, dated 2005).

Experiments:
[1] = test system: Hep2 cells; conditions: cited from earlier work
[2] = 1.5×10^6 IU injected subcutaneously into the back of a rabbit of about 2 kg, cited from earlier work
[3] = test system: human hepatoblastoma cell line (HepG2); conditions: actinomycin D omitted; cited from earlier work

human interferon β
effectiveness relative to betaseron in protecting cells against a viral challenge [1]: about 2.2 times
interferon detectable in the serum after 1 hour ([2]; 1 hour): ≥ 128 IU/ml
interferon detectable in the serum after 5 hours ([2]; 5 hours): ≥ 64 IU/ml
antiviral activity relative to natural interferon β from primary diploid human fibroblast cells [3]: about 1.5 times
